16 molecules from patent US11236106B2, “Cycloalkane-1,3-diamine derivative” (Daiichi Sankyo Company, Limited, priority 2018, dated 2022) can be followed below.

Among the test systems are MV-4-11 cells; MOLM-13 cells; K562 cells.
Holding throughout (assay): cells
Holding throughout (conditions): Homo sapiens

[1] abbreviates: MV4-11, 168 h, read-out: GI50, cell growth inhibitory activity, MV-4-11, day 7, MV-4-11 cells, cultured 7 days, assigned by order and values.
[2] abbreviates: MOLM-13, 168 h, read-out: GI50, cell growth inhibitory activity, MOLM-13, day 7, MOLM-13 cells, cultured 7 days, assigned by order and values.
[3] abbreviates: K562, 168 h, read-out: GI50, cell growth inhibitory activity, K562, day 7.
The mark [4] stands for this setting: MV4-11, 72 h, read-out: GI50, cell growth inhibitory activity, MV-4-11, day 3, MV-4-11 cells, cultured 3 days, assigned by order and values.
Setting [5] is: MOLM-13, 72 h, read-out: GI50, cell growth inhibitory activity, MOLM-13, day 3, MOLM-13 cells, cultured 3 days, assigned by order and values.
Setting [6] is: K562, 72 h, read-out: GI50, cell growth inhibitory activity, K562, day 3.

Where a name gives a salt, the structure may show the parent alone. Read-outs that look alike come from different tables or passages of the source. Where only a bound is given, the exact number is not on record here.

In the case of `COc1cc(-c2ccc(CN[C@H]3C[C@@H](O)[C@@H](N(C)c4ncnc5sc(CC(F)(F)F)cc45)C3)cc2)nnc1Oc1cccnc1` [Example 107, (1R,2S,4R)-4-{[(4-{5-methoxy-6-[(pyridin-3-yl)oxy]pyridazin-3-yl}phenyl)methyl]amino}-2-{methyl[6-(2,2,2-trifluoroethyl)thieno[2,3-d]pyrimidin-4-yl]amino}cyclopentan-1-ol hydrochloride], the 50% growth inhibitory concentration (GI50) with MV-4-11 cells (setting [1]) is 27 nM; in the assay with MOLM-13 cells (setting [2]) it was 64.7 nM; in the assay with K562 cells (setting [3]), 4910 nM.

For the molecule `COCCOc1nnc(-c2ccc(CN[C@H]3C[C@@H](O)[C@@H](N(C)c4nc(OC)nc5sc(CC(F)(F)F)cc45)C3)cc2)cc1OC` [Example 109, (1R,2S,4R)-4-[({4-[5-methoxy-6-(2-methoxyethoxy)pyridazin-3-yl]phenyl}methyl)amino]-2-{[2-methoxy-6-(2,2,2-trifluoroethyl)thieno[2,3-d]pyrimidin-4-yl](methyl)amino}cyclopentan-1-ol hydrochloride], the GI50 in the assay on MV-4-11 cells (setting [1]) is 13.3 nM; with MOLM-13 cells (setting [2]) it was 31.2 nM; in the assay with K562 cells (setting [3]), over 5000 nM.

For `COc1nc(N(C)[C@H]2C[C@@H](NCc3ccc(-c4nnc(OC(F)F)cc4OC)cc3)C[C@H]2O)c2cc(CC(F)(F)F)sc2n1` [Example 110, (1R,2S,4R)-4-[({4-[6-(difluoromethoxy)-4-methoxypyridazin-3-yl]phenyl}methyl)amino]-2-{[2-methoxy-6-(2,2,2-trifluoroethyl)thieno[2,3-d]pyrimidin-4-yl](methyl)amino}cyclopentan-1-ol hydrochloride], the GI50 worked out at 76.3 nM with MV-4-11 cells (setting [1]), 253 nM with MOLM-13 cells (setting [2]) and 1600 nM in the assay with K562 cells (setting [3]).

Turning to `COc1nc(N(C)[C@H]2C[C@@H](NCc3ccc(-c4nn(C(F)F)c(=O)cc4OC)cc3)C[C@H]2O)c2cc(CC(F)(F)F)sc2n1` [Example 111, 2-(difluoromethyl)-6-[4-({[(1R,3R,4S)-3-hydroxy-4-{[2-methoxy-6-(2,2,2-trifluoroethyl)thieno[2,3-d]pyrimidin-4-yl](methyl)amino}cyclopentyl]amino}methyl)phenyl]-5-methoxypyridazin-3(2H)-one hydrochloride], the GI50 worked out at 634 nM in the assay on MV-4-11 cells (setting [1]), 751 nM in the assay on MOLM-13 cells (setting [2]) and 1200 nM in the assay on K562 cells (setting [3]).

Take `COc1nc(N(C)[C@H]2C[C@@H](NCc3ccc(-c4cnc(CO)c(OC)c4)cc3)C[C@H]2O)c2cc(CC(F)(F)F)sc2n1` [Example 112, (1R,2S,4R)-4-[({4-[6-(hydroxymethyl)-5-methoxypyridin-3-yl]phenyl}methyl)amino]-2-{[2-methoxy-6-(2,2,2-trifluoroethyl)thieno[2,3-d]pyrimidin-4-yl](methyl)amino}cyclopentan-1-ol hydrochloride]: the GI50 in the assay on MV-4-11 cells (setting [1]) was 26.5 nM; in the assay on MOLM-13 cells (setting [2]), 995 nM; in the assay on K562 cells (setting [3]), 2560 nM.

For the molecule `C=CC(=O)N(C)c1nnc(-c2ccc(CN[C@H]3C[C@@H](O)[C@@H](N(C)c4nc(OC)nc5sc(CC(F)(F)F)cc45)C3)cc2)cc1OC` [Example 113, N-{6-[4-({[(1R,3R,4S)-3-hydroxy-4-{[2-methoxy-6(2,2,2-trifluoroethyl)thieno[2,3-d]pyrimidin-4-yl](methyl)amino}cyclopentyl]amino}methyl)phenyl]-4-methoxypyridazin-3-yl}-N-methylprop-2-enamide hydrochloride], the figures for the GI50 in the assay with MV-4-11 cells (setting [1]), in the assay on MOLM-13 cells (setting [2]) and in the assay on K562 cells (setting [3]) were 99.7 nM, 1150 nM and 1660 nM, respectively.

For `COc1nc(N(C)[C@H]2C[C@@H](NCc3ccc(-c4cc(OC)c(Oc5ccccc5)nn4)cc3)C[C@H]2O)c2cc(CC(F)(F)F)sc2n1` [Example 114, (1R,2S,4R)-4-({[4-(5-methoxy-6-phenoxypyridazin-3-yl)phenyl]methyl}amino)-2-{[2-methoxy-6-(2,2,2-trifluoroethy)thieno[2,3-d]pyrimidin-4-yl](methyl)amino}cyclopentan-1-ol hydrochloride], the GI50 was 44 nM in the assay on MV-4-11 cells (setting [1]), 143 nM with MOLM-13 cells (setting [2]) and 1940 nM in the assay with K562 cells (setting [3]).

Turning to `COc1nc(N(C)[C@H]2C[C@@H](NCC3CCN(c4cc(OC)c(OC)nn4)CC3)C[C@H]2O)c2cc(CC(F)(F)F)sc2n1` [Example 115, (1R,2S,4R)-4-({[1-(5,6-dimethoxypyridazin-3-yl)piperidin-4-yl]methyl}amino)-2-{[2-methoxy-6-(2,2,2-trifluoroethyl)thieno[2,3-d]pyrimidin-4-yl](methyl)amino}cyclopentan-1-ol hydrochloride], the GI50 was 222 nM in the assay with MV-4-11 cells (setting [1]), 974 nM with MOLM-13 cells (setting [2]) and over 5000 nM in the assay with K562 cells (setting [3]).

Regarding `COc1nc(N(C)[C@H]2C[C@@H](NCc3ccc(-c4cnc(N(C)C)c(OC)c4)cc3)C[C@H]2O)c2cc(CC(F)(F)F)sc2n1` [Example 117, (1R,2S,4R)-4-[({4-[6-(dimethylamino)-5-methoxypyridin-3-yl]phenyl}methyl)amino]-2-{[2-methoxy-6-(2,2,2-trifluoroethyl)thieno[2,3-d]pyrimidin-4-yl](methyl)amino}cyclopentan-1-ol hydrochloride], the GI50 with MV-4-11 cells (setting [1]) was 46.8 nM; in the assay with MOLM-13 cells (setting [2]), 184 nM; in the assay on K562 cells (setting [3]) it was 1560 nM.

With `COc1nc(N(C)[C@H]2C[C@@H](NCc3ccc(-c4cc(OC)c(OC5CCN(S(C)(=O)=O)CC5)nn4)cc3)C[C@H]2O)c2cc(CC(F)(F)F)sc2n1` [Example 118, (1R,2S,4R)-4-({[4-(6-{[1-(methanesulfonyl)piperidin-4-yl]oxy}-5-methoxypyridazin-3-yl)phenyl]methyl}amino)-2-{[2-methoxy-6-(2,2,2-trifluoroethyl)thieno[2,3-d]pyrimidin-4-yl(methyl)amino}cyclopentan-1-ol hydrochloride], the figures for the GI50 with MV-4-11 cells (setting [1]), in the assay on MOLM-13 cells (setting [2]) and in the assay on K562 cells (setting [3]) were 25.4 nM, 127 nM and 2700 nM, respectively.

Take `COc1nc(N(C)[C@H]2C[C@@H](NCc3cccc(Nc4cccnc4)c3)C[C@H]2O)c2cc(CC(F)(F)F)sc2n1` [Example 120, (1R,2S,4R)-2-{[2-methoxy-6-(2,2,2-trifluoroethyl)thieno[2,3-d]pyrimidin-4-yl](methyl)amino}-4-[({3-[(pyridin-3-yl)amino]phenyl}methyl)amino]cyclopentan-1-ol hydrochloride]: the figures for the GI50 in the assay with MV-4-11 cells (setting [1]), with MOLM-13 cells (setting [2]) and with K562 cells (setting [3]) were 225 nM, 729 nM and 2160 nM, respectively.

`CN(c1ncnc2sc(CC(F)(F)F)cc12)[C@H]1C[C@@H](NCc2cccc(-c3cccnc3)c2)C[C@H]1O` [Example 124, (1R,2S,4R)-2-{methyl[6-(2,2,2-trifluoroethyl)thieno[2,3-d]pyrimidin-4-yl]amino}-4-({[3-(pyridin-3-yl)phenyl]methyl}amino)cyclopentan-1-ol hydrochloride]: the GI50 is 624 nM in the assay with MV-4-11 cells (setting [1]), 922 nM in the assay with MOLM-13 cells (setting [2]) and 4820 nM with K562 cells (setting [3]).

In the case of `COc1cc(-c2ccc(CN[C@H]3CC[C@H](OC)[C@@H](Nc4ncnc5sc(CC(F)(F)F)cc45)C3)cc2)nnc1OC` [Example 126, (1S,3S,4S)—N^1-{[4-(5,6-dimethoxypyridazin-3-yl)phenyl]methyl}-4-methoxy-N^3-[6-(2,2,2-trifluoroethyl)thieno[2,3-d]pyrimidin-4-yl]cyclohexane-1,3-diamine Hydrochloride], the GI50 was 257 nM in the assay on MV-4-11 cells (setting [4]); 137 nM in the assay on MV-4-11 cells (setting [1]); 5030 nM in the assay on MOLM-13 cells (setting [5]); 396 nM in the assay on MOLM-13 cells (setting [2]); over 10000 nM in the assay on K562 cells (setting [6]); 8840 nM in the assay with K562 cells (setting [3]).

Consider `COc1cc(-c2ccc(CN[C@H]3C[C@@H](OC)[C@@H](N(C)c4ncnc5sc(CC(F)(F)F)cc45)C3)cc2)nnc1OC` [Example 127, (1R,3S,4R)—N^1-{[4-(5,6-dimethoxypyridazin-3-yl)phenyl]methyl}-4-methoxy-N^3-methyl-N^3-[6-(2,2,2-trifluoroethyl)thieno[2,3-d]pyrimidin-4-yl]cyclopentane-1,3-diamine Hydrochloride], for which the GI50 with MV-4-11 cells (setting [4]) is 169 nM; with MV-4-11 cells (setting [1]) it was 92 nM; with MOLM-13 cells (setting [5]), 2150 nM; with MOLM-13 cells (setting [2]), 242 nM; in the assay with K562 cells (setting [6]), 7140 nM; with K562 cells (setting [3]), 4260 nM.

In the case of `COc1cncc(-c2ccc(CN[C@H]3C[C@@H](O)[C@@H](N(C)c4ncnc5sc(CC(F)(F)F)cc45)C3)cc2)c1` [Example 129, (1R,2S,4R)-4-({[4-(5-methoxypyridin-3-yl)phenyl]methyl}amino)-2-{methyl[6-(2,2,2-trifluoroethyl)thieno[2,3-d]pyrimidin-4-yl]amino}cyclopentan-1-ol Hydrochloride], the concentration for 50% growth inhibition (GI50) with MV-4-11 cells (setting [4]) was determined as 96.8 nM; with MV-4-11 cells (setting [1]) it was 37.8 nM; with MOLM-13 cells (setting [5]), 1250 nM; in the assay with MOLM-13 cells (setting [2]) it was 104 nM; in the assay with K562 cells (setting [6]), 5210 nM; with K562 cells (setting [3]), 2740 nM.

Regarding `COc1ncc(-c2ccc(CN[C@H]3CC[C@@H](N(C)c4ncnc5sc(CC(F)(F)F)cc45)C3)cc2)s1` [Example 130, (1R,3S)—N^3-{[4-(2-methoxy-1,3-thiazol-5-yl)phenyl]methyl}-N^1-methyl-N^1-[6-(2,2,2-trifluoroethyl)thieno[2,3-d]pyrimidin-4-yl]cyclopentane-1,3-diamine Hydrochloride], the results for the GI50 in the assay with MV-4-11 cells (setting [4]), in the assay on MOLM-13 cells (setting [5]) and in the assay on K562 cells (setting [6]) were 241 nM, 894 nM and 1900 nM, respectively.

One may read the GI50 as the concentration giving 50% growth inhibition.
